Key:
[1] = EpiQuik DNMT activity ELISA on immunoprecipitated Myc-DNMT1; conditions: glycan lost; control: Myc-DNMT1-WT under high glucose/TMG
[2] = immunofluorescence, confocal microscopy; conditions: glycan gained; control: DNMT1-WT, low glucose

| Protein | enzymatic_activity [1] | localisation_or_trafficking [2] |
| --- | --- | --- |
| DNMT1: T158A (protein) parent chain: MPARTAPARVPTLAVPAISLPDDVRRRLKDLERDSLTEKECVKEKLNLLHEFLQTEIKNQLCDLETKLRKEELSEEGYLAKVKSLLNKDLSLENGAHAYNREVNGRLENGNQARSEARRVGMADANSPPKPLSKPRTPRRSKSDGEAKPEPSPSPRITRKSTRQTTITSHFAKGPAKRKPQEESERAKSDESIKEEDKDQDEKRRRVTSRERVARPLPAEEPERAKSGTRTEKEEERDEKEEKRLRSQTKEPTPKQKLKEEPDREARAGVQADEDEDGDEKDEKKHRSQPKDLAAKRRPEEKEPEKVNPQISDEKDEDEKEEKRRKTTPKEPTEKKMARAKTVMNSKTHPPKCIQCGQYLDDPDLKYGQHPPDAVDEPQMLTNEKLSIFDANESGFESYEALPQHKLTCFSVYCKHGHLCPIDTGLIEKNIELFFSGSAKPIYDDDPSLEGGVNGKNLGPINEWWITGFDGGEKALIGFSTSFAEYILMDPSPEYAPIFGLMQEKIYISKIVVEFLQSNSDSTYEDLINKIETTVPPSGLNLNRFTEDSLLRHAQFVVEQVESYDEAGDSDEQPIFLTPCMRDLIKLAGVTLGQRRAQARRQTIRHSTREKDRGPTKATTTKLVYQIFDTFFAEQIEKDDREDKENAFKRRRCGVCEVCQQPECGKCKACKDMVKFGGSGRSKQACQERRCPNMAMKEADDDEEVDDNIPEMPSPKKMHQGKKKKQNKNRISWVGEAVKTDGKKSYYKKVCIDAETLEVGDCVSVIPDDSSKPLYLARVTALWEDSSNGQMFHAHWFCAGTDTVLGATSDPLELFLVDECEDMQLSYIHSKVKVIYKAPSENWAMEGGMDPESLLEGDDGKTYFYQLWYDQDYARFESPPKTQPTEDNKFKFCVSCARLAEMRQKEIPRVLEQLEDLDSRVLYYSATKNGILYRVGDGVYLPPEAFTFNIKLSSPVKRPRKEPVDEDLYPEHYRKYSDYIKGSNLDAPEPYRIGRIKEIFCPKKSNGRPNETDIKIRVNKFYRPENTHKSTPASYHADINLLYWSDEEAVVDFKAVQGRCTVEYGEDLPECVQVYSMGGPNRFYFLEAYNAKSKSFEDPPNHARSPGNKGKGKGKGKGKPKSQACEPSEPEIEIKLPKLRTLDVFSGCGGLSEGFHQAGISDTLWAIEMWDPAAQAFRLNNPGSTVFTEDCNILLKLVMAGETTNSRGQRLPQKGDVEMLCGGPPCQGFSGMNRFNSRTYSKFKNSLVVSFLSYCDYYRPRFFLLENVRNFVSFKRSMVLKLTLRCLVRMGYQCTFGVLQAGQYGVAQTRRRAIILAAAPGEKLPLFPEPLHVFAPRACQLSVVVDDKKFVSNITRLSSGPFRTITVRDTMSDLPEVRNGASALEISYNGEPQSWFQRQLRGAQYQPILRDHICKDMSALVAARMRHIPLAPGSDWRDLPNIEVRLSDGTMARKLRYTHHDRKNGRSSSGALRGVCSCVEAGKACDPAARQFNTLIPWCLPHTGNRHNHWAGLYGRLEWDGFFSTTVTNPEPMGKQGRVLHPEQHRVVSVRECARSQGFPDTYRLFGNILDKHRQVGNAVPPPLAKAIGLEIKLCMLAKARESASAKIKEEEAAKD | no change |  |
| DNMT1: 25 mM glucose + TMG (protein) parent chain: MPARTAPARVPTLAVPAISLPDDVRRRLKDLERDSLTEKECVKEKLNLLHEFLQTEIKNQLCDLETKLRKEELSEEGYLAKVKSLLNKDLSLENGAHAYNREVNGRLENGNQARSEARRVGMADANSPPKPLSKPRTPRRSKSDGEAKPEPSPSPRITRKSTRQTTITSHFAKGPAKRKPQEESERAKSDESIKEEDKDQDEKRRRVTSRERVARPLPAEEPERAKSGTRTEKEEERDEKEEKRLRSQTKEPTPKQKLKEEPDREARAGVQADEDEDGDEKDEKKHRSQPKDLAAKRRPEEKEPEKVNPQISDEKDEDEKEEKRRKTTPKEPTEKKMARAKTVMNSKTHPPKCIQCGQYLDDPDLKYGQHPPDAVDEPQMLTNEKLSIFDANESGFESYEALPQHKLTCFSVYCKHGHLCPIDTGLIEKNIELFFSGSAKPIYDDDPSLEGGVNGKNLGPINEWWITGFDGGEKALIGFSTSFAEYILMDPSPEYAPIFGLMQEKIYISKIVVEFLQSNSDSTYEDLINKIETTVPPSGLNLNRFTEDSLLRHAQFVVEQVESYDEAGDSDEQPIFLTPCMRDLIKLAGVTLGQRRAQARRQTIRHSTREKDRGPTKATTTKLVYQIFDTFFAEQIEKDDREDKENAFKRRRCGVCEVCQQPECGKCKACKDMVKFGGSGRSKQACQERRCPNMAMKEADDDEEVDDNIPEMPSPKKMHQGKKKKQNKNRISWVGEAVKTDGKKSYYKKVCIDAETLEVGDCVSVIPDDSSKPLYLARVTALWEDSSNGQMFHAHWFCAGTDTVLGATSDPLELFLVDECEDMQLSYIHSKVKVIYKAPSENWAMEGGMDPESLLEGDDGKTYFYQLWYDQDYARFESPPKTQPTEDNKFKFCVSCARLAEMRQKEIPRVLEQLEDLDSRVLYYSATKNGILYRVGDGVYLPPEAFTFNIKLSSPVKRPRKEPVDEDLYPEHYRKYSDYIKGSNLDAPEPYRIGRIKEIFCPKKSNGRPNETDIKIRVNKFYRPENTHKSTPASYHADINLLYWSDEEAVVDFKAVQGRCTVEYGEDLPECVQVYSMGGPNRFYFLEAYNAKSKSFEDPPNHARSPGNKGKGKGKGKGKPKSQACEPSEPEIEIKLPKLRTLDVFSGCGGLSEGFHQAGISDTLWAIEMWDPAAQAFRLNNPGSTVFTEDCNILLKLVMAGETTNSRGQRLPQKGDVEMLCGGPPCQGFSGMNRFNSRTYSKFKNSLVVSFLSYCDYYRPRFFLLENVRNFVSFKRSMVLKLTLRCLVRMGYQCTFGVLQAGQYGVAQTRRRAIILAAAPGEKLPLFPEPLHVFAPRACQLSVVVDDKKFVSNITRLSSGPFRTITVRDTMSDLPEVRNGASALEISYNGEPQSWFQRQLRGAQYQPILRDHICKDMSALVAARMRHIPLAPGSDWRDLPNIEVRLSDGTMARKLRYTHHDRKNGRSSSGALRGVCSCVEAGKACDPAARQFNTLIPWCLPHTGNRHNHWAGLYGRLEWDGFFSTTVTNPEPMGKQGRVLHPEQHRVVSVRECARSQGFPDTYRLFGNILDKHRQVGNAVPPPLAKAIGLEIKLCMLAKARESASAKIKEEEAAKD |  | no change |
| DNMT1: S878D (protein) parent chain: MPARTAPARVPTLAVPAISLPDDVRRRLKDLERDSLTEKECVKEKLNLLHEFLQTEIKNQLCDLETKLRKEELSEEGYLAKVKSLLNKDLSLENGAHAYNREVNGRLENGNQARSEARRVGMADANSPPKPLSKPRTPRRSKSDGEAKPEPSPSPRITRKSTRQTTITSHFAKGPAKRKPQEESERAKSDESIKEEDKDQDEKRRRVTSRERVARPLPAEEPERAKSGTRTEKEEERDEKEEKRLRSQTKEPTPKQKLKEEPDREARAGVQADEDEDGDEKDEKKHRSQPKDLAAKRRPEEKEPEKVNPQISDEKDEDEKEEKRRKTTPKEPTEKKMARAKTVMNSKTHPPKCIQCGQYLDDPDLKYGQHPPDAVDEPQMLTNEKLSIFDANESGFESYEALPQHKLTCFSVYCKHGHLCPIDTGLIEKNIELFFSGSAKPIYDDDPSLEGGVNGKNLGPINEWWITGFDGGEKALIGFSTSFAEYILMDPSPEYAPIFGLMQEKIYISKIVVEFLQSNSDSTYEDLINKIETTVPPSGLNLNRFTEDSLLRHAQFVVEQVESYDEAGDSDEQPIFLTPCMRDLIKLAGVTLGQRRAQARRQTIRHSTREKDRGPTKATTTKLVYQIFDTFFAEQIEKDDREDKENAFKRRRCGVCEVCQQPECGKCKACKDMVKFGGSGRSKQACQERRCPNMAMKEADDDEEVDDNIPEMPSPKKMHQGKKKKQNKNRISWVGEAVKTDGKKSYYKKVCIDAETLEVGDCVSVIPDDSSKPLYLARVTALWEDSSNGQMFHAHWFCAGTDTVLGATSDPLELFLVDECEDMQLSYIHSKVKVIYKAPSENWAMEGGMDPESLLEGDDGKTYFYQLWYDQDYARFESPPKTQPTEDNKFKFCVSCARLAEMRQKEIPRVLEQLEDLDSRVLYYSATKNGILYRVGDGVYLPPEAFTFNIKLSSPVKRPRKEPVDEDLYPEHYRKYSDYIKGSNLDAPEPYRIGRIKEIFCPKKSNGRPNETDIKIRVNKFYRPENTHKSTPASYHADINLLYWSDEEAVVDFKAVQGRCTVEYGEDLPECVQVYSMGGPNRFYFLEAYNAKSKSFEDPPNHARSPGNKGKGKGKGKGKPKSQACEPSEPEIEIKLPKLRTLDVFSGCGGLSEGFHQAGISDTLWAIEMWDPAAQAFRLNNPGSTVFTEDCNILLKLVMAGETTNSRGQRLPQKGDVEMLCGGPPCQGFSGMNRFNSRTYSKFKNSLVVSFLSYCDYYRPRFFLLENVRNFVSFKRSMVLKLTLRCLVRMGYQCTFGVLQAGQYGVAQTRRRAIILAAAPGEKLPLFPEPLHVFAPRACQLSVVVDDKKFVSNITRLSSGPFRTITVRDTMSDLPEVRNGASALEISYNGEPQSWFQRQLRGAQYQPILRDHICKDMSALVAARMRHIPLAPGSDWRDLPNIEVRLSDGTMARKLRYTHHDRKNGRSSSGALRGVCSCVEAGKACDPAARQFNTLIPWCLPHTGNRHNHWAGLYGRLEWDGFFSTTVTNPEPMGKQGRVLHPEQHRVVSVRECARSQGFPDTYRLFGNILDKHRQVGNAVPPPLAKAIGLEIKLCMLAKARESASAKIKEEEAAKD | increases |  |

Reference: article PMC10390045
